In EP2181998B1, “New benzothiazinone derivative and its use as antibacterial agent” (priority 2006, dated 2007):
In brackets after ≈: the same amount, converted by molar mass. Read-outs that look alike come from different tables or passages of the source.

Tested on: M. tuberculosis H37Rv
Test: microbe, parasite or virus in culture
Settings: Mycobacterium tuberculosis

SMILES	MBC	MIC	MBC (read-out: MBC (µg/mL) mean)	MIC (read-out: MIC (µg/mL) mean)
O=c1nc(N2CCC3(CC2)OCCO3)sc2c([N+](=O)[O-])cc(C(F)(F)F)cc12 [Compound 1, 2-(1,4-dioxa-8-azaspiro[4.5]dec-8-yl)-8-nitro-6-(trifluoromethyl)-1,3-benzothiazin-4-one]	0.58 µg/mL (≈ 1.39 µM)	0.39 µg/mL (≈ 0.934 µM)		
CC1COC2(CCN(c3nc(=O)c4cc(C(F)(F)F)cc([N+](=O)[O-])c4s3)CC2)O1 (centres unmarked) [Compound 2, 2-(2-methyl-1,4-dioxa-8-azaspiro[4.5]dec-8-yl)-8-nitro-6-(trifluoromethyl)-1,3-benzothiazin-4-one]	0.58 µg/mL (≈ 1.34 µM)	0.39 µg/mL (≈ 0.904 µM)		
CC1OC2(CCN(c3nc(=O)c4cc(C(F)(F)F)cc([N+](=O)[O-])c4s3)CC2)OC1C (centres unmarked) [Compound 5, 2-(2,3-dimethyl-1,4-dioxa-8-azaspiro[4.5]dec-8-yl)-8-nitro-6-(trifluoromethyl)-1,3-benzothiazin-4-one]	0.58 µg/mL (≈ 1.3 µM)	0.39 µg/mL (≈ 0.876 µM)		
N#Cc1cc([N+](=O)[O-])c2sc(N3CCC4(CC3)OCCO4)nc(=O)c2c1 [Compound 9, 2-(1,4-dioxa-8-azaspiro[4.5]dec-8-yl)-8-nitro-4-oxo-1,3-benzothiazine-6-carbonitrile]	0.29 µg/mL (≈ 0.775 µM)	0.195 µg/mL (≈ 0.521 µM)		
CC1COC2(CCN(c3nc(=O)c4cc(C#N)cc([N+](=O)[O-])c4s3)CC2)O1 (centres unmarked) [Compound 10, 2-(2-methyl-1,4-dioxa-8-azaspiro[4.5]dec-8-yl)-8-nitro-4-oxo-1,3-benzothiazine-6-carbonitrile]	0.58 µg/mL (≈ 1.49 µM)	0.39 µg/mL (≈ 1 µM)		
NNC(=O)c1ccncc1 [Isoniazid (INH), Isoniazid, reference compound]	1.15 µg/mL (≈ 8.39 µM)	0.97 µg/mL (≈ 7.07 µM)	1.15 µg/mL (≈ 8.39 µM)	0.97 µg/mL (≈ 7.07 µM)
